Laboratory results published in ChEMBL document CHEMBL3243935, “Analgesic and tranquilizing activity of 5,8-disubstituted 2-aminomethyl-3,4-dihydronaphthalenes” (J Med Chem, 1978).

Columns and labels:
[1] = test system: Mus musculus; experiment: Analgesic activity in Swiss CD mouse at 100 mg/kg, ip measured 0.5 hr post treatment by hot-plate method relative to control; conditions: route intraperitoneal
[2] = test system: Mus musculus; experiment: Analgesic activity in Swiss CD mouse at 100 mg/kg, ip measured 2 hrs post treatment by hot-plate method relative to control; conditions: route intraperitoneal
[3] = test system: Mus musculus; experiment: Analgesic activity in Swiss CD mouse assessed as elevation of response latency at 100 mg/kg, ip measured 0.5 hr post treatment by tail flick method relative to control; conditions: route intraperitoneal, strain Swiss CD
[4] = test system: Mus musculus; experiment: Analgesic activity in Swiss CD mouse assessed as elevation of response latency at 100 mg/kg, ip measured 2 hrs post treatment by tail flick method relative to control; conditions: route intraperitoneal, strain Swiss CD

Q: Which results are given for `COc1ccc(Cl)c2c1CCC(CN1CCC3(CC1)C(=O)NCN3c1ccccc1)=C2`?
A: Activity [1]: 181%; Activity [2]: 167%; Activity [3]: 97%; Activity [4]: 103%
